# B1: AB206-ADL12-D2 (conjugate)
# heavy: EVQLLESGGGLVQPGGSLRLSCAASGFTFSHYMMAWVRQAPGKGLEWVSRIGPSGGPTHYADSVKGRFTISRDNSKNTLYLQMNSLRAEDTAVYYCAGYDSGYDYVAVAGPAEYFQHWGQGTLVTVSSASTKGPSVFPLAPSSKSTSGGTAALGCLVKDYFPEPVTVSWNSGALTSGVHTFPAVLQSSGLYSLSSVVTVPSSSLGTQTYICNVNHKPSNTKVDKKV[sequence of human IgG1 Fc not given]
# light: DIQMTQSPSSLSASVGDRVTITCRASQSISTWLAWYQQKPGKAPKLLIYKASNLHTGVPSRFSGSGSGTEFSLTISGLQPDDFATYYCQQYNSYSRTFGQGTKVEIKRTVAAPSVFIFPPSDEQLKSGTASVVCLLNNFYPREAKVQWKVDNALQSGNSQESVTEQDSKDSTYSLSSTLTLSKADYEKHKVYACEVTHQGLSSPVTKSFNRGEC
# B2: AB206-ADL5-D19 (conjugate)
# heavy: EVQLLESGGGLVQPGGSLRLSCAASGFTFSHYMMAWVRQAPGKGLEWVSRIGPSGGPTHYADSVKGRFTISRDNSKNTLYLQMNSLRAEDTAVYYCAGYDSGYDYVAVAGPAEYFQHWGQGTLVTVSSASTKGPSVFPLAPSSKSTSGGTAALGCLVKDYFPEPVTVSWNSGALTSGVHTFPAVLQSSGLYSLSSVVTVPSSSLGTQTYICNVNHKPSNTKVDKKV[sequence of human IgG1 Fc not given]
# light: DIQMTQSPSSLSASVGDRVTITCRASQSISTWLAWYQQKPGKAPKLLIYKASNLHTGVPSRFSGSGSGTEFSLTISGLQPDDFATYYCQQYNSYSRTFGQGTKVEIKRTVAAPSVFIFPPSDEQLKSGTASVVCLLNNFYPREAKVQWKVDNALQSGNSQESVTEQDSKDSTYSLSSTLTLSKADYEKHKVYACEVTHQGLSSPVTKSFNRGEC
# B3: AB206-ADL10-D1 (conjugate)
# heavy: EVQLLESGGGLVQPGGSLRLSCAASGFTFSHYMMAWVRQAPGKGLEWVSRIGPSGGPTHYADSVKGRFTISRDNSKNTLYLQMNSLRAEDTAVYYCAGYDSGYDYVAVAGPAEYFQHWGQGTLVTVSSASTKGPSVFPLAPSSKSTSGGTAALGCLVKDYFPEPVTVSWNSGALTSGVHTFPAVLQSSGLYSLSSVVTVPSSSLGTQTYICNVNHKPSNTKVDKKV[sequence of human IgG1 Fc not given]
# light: DIQMTQSPSSLSASVGDRVTITCRASQSISTWLAWYQQKPGKAPKLLIYKASNLHTGVPSRFSGSGSGTEFSLTISGLQPDDFATYYCQQYNSYSRTFGQGTKVEIKRTVAAPSVFIFPPSDEQLKSGTASVVCLLNNFYPREAKVQWKVDNALQSGNSQESVTEQDSKDSTYSLSSTLTLSKADYEKHKVYACEVTHQGLSSPVTKSFNRGEC
# B4: AB206-ADL5-D15 (conjugate)
# heavy: EVQLLESGGGLVQPGGSLRLSCAASGFTFSHYMMAWVRQAPGKGLEWVSRIGPSGGPTHYADSVKGRFTISRDNSKNTLYLQMNSLRAEDTAVYYCAGYDSGYDYVAVAGPAEYFQHWGQGTLVTVSSASTKGPSVFPLAPSSKSTSGGTAALGCLVKDYFPEPVTVSWNSGALTSGVHTFPAVLQSSGLYSLSSVVTVPSSSLGTQTYICNVNHKPSNTKVDKKV[sequence of human IgG1 Fc not given]
# light: DIQMTQSPSSLSASVGDRVTITCRASQSISTWLAWYQQKPGKAPKLLIYKASNLHTGVPSRFSGSGSGTEFSLTISGLQPDDFATYYCQQYNSYSRTFGQGTKVEIKRTVAAPSVFIFPPSDEQLKSGTASVVCLLNNFYPREAKVQWKVDNALQSGNSQESVTEQDSKDSTYSLSSTLTLSKADYEKHKVYACEVTHQGLSSPVTKSFNRGEC
# B5: AB206-ADL5-D25 (conjugate)
# heavy: EVQLLESGGGLVQPGGSLRLSCAASGFTFSHYMMAWVRQAPGKGLEWVSRIGPSGGPTHYADSVKGRFTISRDNSKNTLYLQMNSLRAEDTAVYYCAGYDSGYDYVAVAGPAEYFQHWGQGTLVTVSSASTKGPSVFPLAPSSKSTSGGTAALGCLVKDYFPEPVTVSWNSGALTSGVHTFPAVLQSSGLYSLSSVVTVPSSSLGTQTYICNVNHKPSNTKVDKKV[sequence of human IgG1 Fc not given]
# light: DIQMTQSPSSLSASVGDRVTITCRASQSISTWLAWYQQKPGKAPKLLIYKASNLHTGVPSRFSGSGSGTEFSLTISGLQPDDFATYYCQQYNSYSRTFGQGTKVEIKRTVAAPSVFIFPPSDEQLKSGTASVVCLLNNFYPREAKVQWKVDNALQSGNSQESVTEQDSKDSTYSLSSTLTLSKADYEKHKVYACEVTHQGLSSPVTKSFNRGEC
# B6: AB206-ADL1-D1 (conjugate)
# heavy: EVQLLESGGGLVQPGGSLRLSCAASGFTFSHYMMAWVRQAPGKGLEWVSRIGPSGGPTHYADSVKGRFTISRDNSKNTLYLQMNSLRAEDTAVYYCAGYDSGYDYVAVAGPAEYFQHWGQGTLVTVSSASTKGPSVFPLAPSSKSTSGGTAALGCLVKDYFPEPVTVSWNSGALTSGVHTFPAVLQSSGLYSLSSVVTVPSSSLGTQTYICNVNHKPSNTKVDKKV[sequence of human IgG1 Fc not given]
# light: DIQMTQSPSSLSASVGDRVTITCRASQSISTWLAWYQQKPGKAPKLLIYKASNLHTGVPSRFSGSGSGTEFSLTISGLQPDDFATYYCQQYNSYSRTFGQGTKVEIKRTVAAPSVFIFPPSDEQLKSGTASVVCLLNNFYPREAKVQWKVDNALQSGNSQESVTEQDSKDSTYSLSSTLTLSKADYEKHKVYACEVTHQGLSSPVTKSFNRGEC
# B7: AB206-ADL5-D2 (conjugate)
# heavy: EVQLLESGGGLVQPGGSLRLSCAASGFTFSHYMMAWVRQAPGKGLEWVSRIGPSGGPTHYADSVKGRFTISRDNSKNTLYLQMNSLRAEDTAVYYCAGYDSGYDYVAVAGPAEYFQHWGQGTLVTVSSASTKGPSVFPLAPSSKSTSGGTAALGCLVKDYFPEPVTVSWNSGALTSGVHTFPAVLQSSGLYSLSSVVTVPSSSLGTQTYICNVNHKPSNTKVDKKV[sequence of human IgG1 Fc not given]
# light: DIQMTQSPSSLSASVGDRVTITCRASQSISTWLAWYQQKPGKAPKLLIYKASNLHTGVPSRFSGSGSGTEFSLTISGLQPDDFATYYCQQYNSYSRTFGQGTKVEIKRTVAAPSVFIFPPSDEQLKSGTASVVCLLNNFYPREAKVQWKVDNALQSGNSQESVTEQDSKDSTYSLSSTLTLSKADYEKHKVYACEVTHQGLSSPVTKSFNRGEC
# B8: AB206-ADL1-D8 (conjugate)
# heavy: EVQLLESGGGLVQPGGSLRLSCAASGFTFSHYMMAWVRQAPGKGLEWVSRIGPSGGPTHYADSVKGRFTISRDNSKNTLYLQMNSLRAEDTAVYYCAGYDSGYDYVAVAGPAEYFQHWGQGTLVTVSSASTKGPSVFPLAPSSKSTSGGTAALGCLVKDYFPEPVTVSWNSGALTSGVHTFPAVLQSSGLYSLSSVVTVPSSSLGTQTYICNVNHKPSNTKVDKKV[sequence of human IgG1 Fc not given]
# light: DIQMTQSPSSLSASVGDRVTITCRASQSISTWLAWYQQKPGKAPKLLIYKASNLHTGVPSRFSGSGSGTEFSLTISGLQPDDFATYYCQQYNSYSRTFGQGTKVEIKRTVAAPSVFIFPPSDEQLKSGTASVVCLLNNFYPREAKVQWKVDNALQSGNSQESVTEQDSKDSTYSLSSTLTLSKADYEKHKVYACEVTHQGLSSPVTKSFNRGEC
# B9: AB206-ADL1-D4 (conjugate)
# heavy: EVQLLESGGGLVQPGGSLRLSCAASGFTFSHYMMAWVRQAPGKGLEWVSRIGPSGGPTHYADSVKGRFTISRDNSKNTLYLQMNSLRAEDTAVYYCAGYDSGYDYVAVAGPAEYFQHWGQGTLVTVSSASTKGPSVFPLAPSSKSTSGGTAALGCLVKDYFPEPVTVSWNSGALTSGVHTFPAVLQSSGLYSLSSVVTVPSSSLGTQTYICNVNHKPSNTKVDKKV[sequence of human IgG1 Fc not given]
# light: DIQMTQSPSSLSASVGDRVTITCRASQSISTWLAWYQQKPGKAPKLLIYKASNLHTGVPSRFSGSGSGTEFSLTISGLQPDDFATYYCQQYNSYSRTFGQGTKVEIKRTVAAPSVFIFPPSDEQLKSGTASVVCLLNNFYPREAKVQWKVDNALQSGNSQESVTEQDSKDSTYSLSSTLTLSKADYEKHKVYACEVTHQGLSSPVTKSFNRGEC
# B10: AB206-ADL1-D14 (conjugate)
# heavy: EVQLLESGGGLVQPGGSLRLSCAASGFTFSHYMMAWVRQAPGKGLEWVSRIGPSGGPTHYADSVKGRFTISRDNSKNTLYLQMNSLRAEDTAVYYCAGYDSGYDYVAVAGPAEYFQHWGQGTLVTVSSASTKGPSVFPLAPSSKSTSGGTAALGCLVKDYFPEPVTVSWNSGALTSGVHTFPAVLQSSGLYSLSSVVTVPSSSLGTQTYICNVNHKPSNTKVDKKV[sequence of human IgG1 Fc not given]
# light: DIQMTQSPSSLSASVGDRVTITCRASQSISTWLAWYQQKPGKAPKLLIYKASNLHTGVPSRFSGSGSGTEFSLTISGLQPDDFATYYCQQYNSYSRTFGQGTKVEIKRTVAAPSVFIFPPSDEQLKSGTASVVCLLNNFYPREAKVQWKVDNALQSGNSQESVTEQDSKDSTYSLSSTLTLSKADYEKHKVYACEVTHQGLSSPVTKSFNRGEC
# B11: AB206-ADL12-D1 (conjugate)
# heavy: EVQLLESGGGLVQPGGSLRLSCAASGFTFSHYMMAWVRQAPGKGLEWVSRIGPSGGPTHYADSVKGRFTISRDNSKNTLYLQMNSLRAEDTAVYYCAGYDSGYDYVAVAGPAEYFQHWGQGTLVTVSSASTKGPSVFPLAPSSKSTSGGTAALGCLVKDYFPEPVTVSWNSGALTSGVHTFPAVLQSSGLYSLSSVVTVPSSSLGTQTYICNVNHKPSNTKVDKKV[sequence of human IgG1 Fc not given]
# light: DIQMTQSPSSLSASVGDRVTITCRASQSISTWLAWYQQKPGKAPKLLIYKASNLHTGVPSRFSGSGSGTEFSLTISGLQPDDFATYYCQQYNSYSRTFGQGTKVEIKRTVAAPSVFIFPPSDEQLKSGTASVVCLLNNFYPREAKVQWKVDNALQSGNSQESVTEQDSKDSTYSLSSTLTLSKADYEKHKVYACEVTHQGLSSPVTKSFNRGEC
# Assay: LC/MS analysis - DAR
# Type: physicochemical
# Conditions: anti-EPHA2 ADCs
row,Molecule,DAR
1,B1,6.3
2,B2,4.6
3,B3,2.7
4,B4,4.2
5,B5,5
6,B6,5.6
7,B7,6.3
8,B8,6.5
9,B9,6
10,B10,3.6
11,B11,6.4

# Source: patent US11945807B2, “Splicing modulator antibody-drug conjugates and methods of use” (EISAI R&D MANAGEMENT CO., LTD., priority 2018, dated 2024)
